From patent US20250295627A1 (Leibniz-Institut Fuer Neurobiologie, priority 2022, published 2025)

Columns and labels:
[1] = target: T1, GST-LMO4 (Homo sapiens, UniProt P61968); test: Isothermal titration calorimetry (ITC); assay type: binding
T1 construct: made in house; host or cells: E. coli BL21 (DE3)
T1 sequence (P61968 1-165): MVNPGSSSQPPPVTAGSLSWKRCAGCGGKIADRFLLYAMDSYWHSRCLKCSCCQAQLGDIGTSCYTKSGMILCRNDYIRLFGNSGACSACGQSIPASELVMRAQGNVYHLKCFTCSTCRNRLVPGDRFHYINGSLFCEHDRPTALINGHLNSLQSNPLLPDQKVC

[2] = target: LMO4-CREB binding (Homo sapiens, UniProt P61968)
[3] = target: Jacob-LMO4 binding (Homo sapiens, UniProt P61968)

For O=[N+]([O-])c1ccc([As](=O)(O)O)cc1 [Nitarsone, (4-nitrophenyl) arsonic acid], the “number of binding sites in LMO4” value [1] was “single binding site”, the “displacement of CREB from LMO4” value [2] was “did not displace CREB from LMO4” and the “binding of Jacob to LMO4” value [3] was “completely abolished binding of Jacob to LMO4”.
